Results taken from patent US12187727B2, “Methods for antagonizing a melanocortin 4 receptor” (Pfizer Inc., priority 2020, dated 2025).

Chains of the proteins cited; added tags and fusions are not shown.
UniProt P32245, whole entry: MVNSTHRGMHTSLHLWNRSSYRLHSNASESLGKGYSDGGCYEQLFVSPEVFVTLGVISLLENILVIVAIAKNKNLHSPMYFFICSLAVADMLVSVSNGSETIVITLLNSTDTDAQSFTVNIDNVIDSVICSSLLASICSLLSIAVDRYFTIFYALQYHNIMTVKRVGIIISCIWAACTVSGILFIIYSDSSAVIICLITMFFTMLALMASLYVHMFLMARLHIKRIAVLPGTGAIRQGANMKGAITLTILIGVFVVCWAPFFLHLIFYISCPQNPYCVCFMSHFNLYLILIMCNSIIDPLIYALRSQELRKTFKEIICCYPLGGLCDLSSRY

Biological target: human Melanocortin-4 receptor (MC4R) (Homo sapiens (Human), UniProt P32245)
Assay: Functional in vitro MC4R antagonist potency assay (cAMP HTRF in CHO cells)
Type: cell-based
Method: Example BB. Functional In Vitro MC4R Antagonist Potency Assay
The functional in vitro antagonist potency for test compounds was determined by monitoring intracellular cyclic adenosine monophosphate (cAMP) levels in Chinese hamster ovary (CHO—) cells stably expressing the human Melanocortin-4 receptor (MC4R). Following agonist activation, human MC4R associates with the G-protein complex causing the Gα subunit to exchange bound GDP for GTP, followed by dissociation of the Ga-GTP complex. The activated Gα subunit can couple to downstream effectors to regulate the levels of second messengers or cAMP within the cell. Thereby, determination of intracellular cAMP levels allows for pharmacological characterization. Intracellular cAMP levels are quantitated using a homogenous assay utilizing the Homogeneous Time-Resolved Fluorescence (HTRF) technology from CisBio. The method is a competitive immunoassay between native cAMP produced by cells and the cAMP labelled with the acceptor dye, d2. […]
(95% O2: 5% CO2) overnight, with micro-clime lids (Labcyte, Cat No. LLS-0310). […] Intracellular cAMP levels were quantified as per Cisbio's protocol (5 uL of D2 and then 5 uL Cryptate, incubated for 1-2 hours at room temperature).
Data expressed as nM cAMP were then normalized to control wells using Activity Base (IDBS). […]

`COc1cc([C@@H](C)C(=O)N2CC[C@@]3(CCc4cc(-c5ncccn5)c(C)nc4N3)C2)c(Cl)cn1` [Example 15, (2R)-2-(5-Chloro-2-methoxypyridin-4-yl)-1-[(2S)-7-methyl-6-(pyrimidin-2-yl)-3,4-dihydro-1H-spiro[1,8-naphthyridine-2,3′-pyrrolidin]-1′-yl]propan-1-one] showed a Kb of 0.051 nM.
`COc1cc([C@@H](C)C(=O)N2CC[C@@]3(CCc4cc(-c5ncccn5)c(C)nc4N3)C2)c(F)cn1` [Example 14, (2R)-2-(5-Fluoro-2-methoxypyridin-4-yl)-1-[(2S)-7-methyl-6-(pyrimidin-2-yl)-3,4-dihydro-1H-spiro[1,8-naphthyridine-2,3′-pyrrolidin]-1′-yl]propan-1-one] gave a Kb of 0.72 nM.
